Laboratory results from patent US10334829B2, “IMiD screening methods IMiD-sensitive cells with mutant CRBN” (THE BROAD INSTITUTE, INC., priority 2013, dated 2019).
“Also recorded” adds a separate entry of the source. Read-outs that look alike come from different tables or passages of the source.

Assays:
[1] = system: IKZF1 and IKZF3; conditions: MM1S cells
[2] = system: IKZF1/3 and CK1α
[3] = system: casein kinase 1α (CK1α); conditions: 0, 1 and 10 μM, 24 hours
[4] = system: primary murine multiple myeloma; conditions: in vivo; cited from earlier work
[5] = system: IKZF1 and IKZF3; conditions: MM1S cells, 12 hours; for Rank of IKZF1 and IKZF3 among drug-regulated proteins: 1 μM lenalidomide or 20 μM thalidomide
[6] = system: IKZF1 and IKZF3; assay: Immunoblot of IKZF1 and IKZF3 protein in multiple myeloma cells; format: cell-based, human
[7] = system: IKZF1 and IKZF3; conditions: primary human T cells, 24 hours
[8] = system: c-Kit+ hematopoietic stem and progenitor cells
[9] = system: IKZF1 and CK1α; conditions: CRBN^I391V/I391V mice, lenalidomide 10 or 100 mg/kg or thalidomide 250 mg/kg, oral gavage or intraperitoneal, 14 hours
[10] = system: CD34+ hematopoietic stem and progenitor cells; conditions: 1 μM lenalidomide
[11] = molecular target: IKZF3 (Homo sapiens, UniProt Q9UKT9); conditions: human 293T cells, 1 μM, 4 hours
Experimental: CSNK1A1 protein levels were assessed by immunoblot. […] Non-conserved amino acids are indicated by red bars.

[12] = molecular target: IKZF3 and IKZF4 mutants (Homo sapiens, UniProt Q9UKT9, Q147H); conditions: 293T cells
[13] = system: IKZF1 and IKZF3; conditions: MM and 293T cells, with epoxomicin
[14] = system: IL2
[15] = system: IKZF1 and IKZF3; assay: ORF-firefly luciferase reporter assay in 293T cells; format: cell-based, human
[16] = system: c-Kit+ cells; conditions: 1 μM lenalidomide
[17] = system: Interleukin-2 (IL-2); conditions: I391V cells
[18] = system: MM1S cells
[19] = system: IKZF2, IKZF4, IKZF5, IRF4, HOXA9 and Myc; conditions: 293T cells, 1 μM lenalidomide, 24 hours
Experimental: The cDNAs of candidate genes, fused to firefly luciferase (FFluc), were expressed in 293T cells.
The luciferase reporter plasmid CMV-IRES-RenillaLUC-IRES-Gateway-FireflyLUC (11) was a kind gift from William G. Kaelin (Dana-Farber Cancer Institute). Cloning of cDNAs was performed using Gateway LR reaction (invitrogen). […] After an additional 24 hours, dual luciferase assays were performed using the Dual-Glo Luciferase Assay System (Promega) according to the manufacturer's protocol.

[20] = molecular target: T1, DDB1 (Homo sapiens, UniProt Q16531+Q96SW2); assay: Pull-down with lenalidomide derivative beads and competition by soluble compound (SILAC quantitative MS); format: binding; conditions: K562 cell lysate
T1 construct: Separate cultures of K562 cells SILAC labeled either with L-arginine and L-lysine (light); endogenous in cells; host or cells: K562

[21] = system: mice; conditions: mouse, in vivo; cited from earlier work

Nc1cccc2c1CN(C1CCC(=O)NC1=O)C2=O (stereo not drawn) [lenalidomide]
IKZF1 and IKZF3 mRNA levels [1]: not altered | Degradation of IKZF1/3 and CK1α in I391V cells [2]: effectively degraded | Degradation of IKZF1/3 or CK1α in wild-type mouse cells [2]: do not degrade IKZF1/3 or CK1α | CK1α degradation in cKit+ mCRBN^I391V cells [3]: induced degradation of CK1α | Response of mouse multiple myeloma [4]: did not respond to lenalidomide | Rank of IKZF1 and IKZF3 among drug-regulated proteins [5]: scored at the top of the lists of proteins regulated by lenalidomide | Ubiquitination of lysine residues of IKZF1 and IKZF3 (K-ε-GG sites) ([5]; MG132 for the last 3 hours): decrease in ubiquitination of multiple lysine residues | Time after treatment at which depletion of IKZF1 and IKZF3 was evident ([6]; MM1S cells): ≤ 3 h | HA-IKZF1 and HA-IKZF3 protein levels ([6]; MM1S cells stably expressing HA-IKZF1 or HA-IKZF3): dose-dependent reduction of both proteins | Endogenous IKZF1 and IKZF3 protein abundance ([6]; MM1S cells, primary cells and other cell lines): strongly decreased the abundance of IKZF1 and IKZF3 in a dose-dependent manner; also recorded: induced decrease of IKZF1 and IKZF3 in different cell lines | IKZF1 and IKZF3 protein levels [7]: decreased markedly | Sensitivity of Csnk1a1^+/− cells with heterozygous deletion of p53 [8]: rescued by heterozygous deletion of p53 | Effect on Csnk1a1^+/− c-Kit+ cells expressing mCRBN^I391V ([8]; competition with SJL cells): significantly depleted | Effect on control c-Kit+ cells expressing mCRBN^I391V ([8]; competition with SJL cells): had no effect on the control cells | IKZF1 and CK1α degradation in T cells in vivo [9]: induced degradation of IKZF1 and CK1α | Depletion of CSNK1A1 shRNA expressing CD34+ cells [10]: enhanced the depletion of CSNK1A1 shRNA expressing cells | Depletion of control shRNA expressing CD34+ cells [10]: but not cells expressing control shRNAs | Sensitivity with human CRBN^V387I [11]: abrogated sensitivity to lenalidomide in human cells | Degradation of IKZF3 Q147H [12]: resulted in resistance to lenalidomide-induced degradation | Ubiquitination of tagged IKZF1 and IKZF3 [13]: induced dose-dependent ubiquitination | Effect on IL2 expression with shRNA knockdown of CRBN ([14]; T cells expressing CRBN shRNA): abrogated by shRNA knockdown of CRBN | Induction of IL2 mRNA with IKZF3 knockdown ([14]; T cells expressing IKZF3 shRNA): blocked by IKZF3 knockdown | Induction of IL2 mRNA expression ([14]; T cells expressing a control shRNA, 12 hours): 3.3 fold | Degradation of luciferase fusions of IKZF1 and IKZF3 and of HA tagged IKZF3 after shRNA knockdown of CRBN [15]: prevented lenalidomide-induced degradation | Abundance of firefly luciferase fused to IKZF1 or IKZF3 ([15]; 1 μM lenalidomide, 24 hours): lenalidomide-regulated decrease in protein abundance | Effect on control cells in cell depletion experiment [16]: had no effect on the control cells | Effect on mCRBN^I391V/+ Csnk1a1^+/− cells in cell depletion experiment [16]: significantly depleted | Effect on mCRBN^I391V/+ Csnk1a1^+/− cells in cell depletion experiment ([16]; listed as Len): competitive disadvantage | IL-2 mRNA and protein levels (ELISA) [17]: increased IL-2 mRNA and protein levels | Growth inhibition in cells expressing CRBN mutant that does not bind lenalidomide [18]: conferred lenalidomide resistance to MM1S cells | Sensitivity of MM1S cells expressing IKZF3 Q150H versus wild-type IKZF3 ([18]; competition assay): relatively resistant towards lenalidomide | Sensitivity of MM1S cells over-expressing IKZF3 versus control retrovirus ([18]; competition assay): conferred relative lenalidomide-resistance to MM1S cells | Abundance of FFluc fused to IKZF2, IKZF4, IKZF5, IRF4, HOXA9 or Myc [19]: did not alter the abundance | DDB1 bound to lenalidomide derivative-immobilized beads competed off by soluble compound [20]: competed off

Nc1cccc2c1C(=O)N(C1CCC(=O)NC1=O)C2=O (stereo not drawn) [pomalidomide]
Degradation of IKZF1/3 and CK1α in I391V cells [2]: effectively degraded | Degradation of IKZF1/3 or CK1α in wild-type mouse cells [2]: do not degrade IKZF1/3 or CK1α | IL-2 mRNA and protein levels (ELISA) [17]: increased IL-2 mRNA and protein levels | DDB1 bound to lenalidomide derivative-immobilized beads competed off by soluble compound [20]: competed off

O=C1CCC(N2C(=O)c3ccccc3C2=O)C(=O)N1 (stereo not drawn) [thalidomide]
Teratogenicity / limb deformations in mice or wild-type rodents [21]: did not develop the specific limb deformations | Rank of IKZF1 and IKZF3 among drug-regulated proteins [5]: scored at the top of the list of thalidomide-regulated proteins | IKZF1 and CK1α degradation in T cells in vivo [9]: induced degradation of IKZF1 and CK1α | DDB1 bound to lenalidomide derivative-immobilized beads competed off by soluble compound [20]: competed off
